## Measured affinities in a library of Ab-14 heavy chain variants

The measurements come from Engelhart et al. 2022 (doi:10.1038/s41597-022-01779-4) through the FLAb antibody collection.

Target peptide (SARS-CoV-2 spike, HR2 region): PDVDLGDISGINAS

Parent: Ab-14, a human scFv built as VH, the linker GGGGSGGGGSGGGGS, VL. Only the CDRs of the heavy chain vary.
VH: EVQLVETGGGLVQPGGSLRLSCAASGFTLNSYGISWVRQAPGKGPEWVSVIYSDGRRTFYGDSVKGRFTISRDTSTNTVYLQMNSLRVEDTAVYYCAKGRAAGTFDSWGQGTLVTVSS
VL: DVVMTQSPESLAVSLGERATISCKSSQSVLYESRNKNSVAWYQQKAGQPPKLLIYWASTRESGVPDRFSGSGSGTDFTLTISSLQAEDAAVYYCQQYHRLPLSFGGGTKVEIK

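The parent was found by panning a naive human phage display library on the peptide. AAYL49 was designed without a model: most single CDR substitutions and a random sample of double and triple ones. In AlphaSeq, yeast of one mating type display the scFv and yeast of the other type display the target. Mating (16 h, 30 °C) was followed by selection of diploids and sequencing of their barcodes. A regression on co-assayed BCL2-family reference pairs converts the normalised counts of each replicate to an apparent Kd. The assay was run in three technical replicates.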

Variants are written as CDR1, CDR2 and CDR3 of the heavy chain (limits as in the source). Parent: GFTLNSYGIS, VIYSDGRRTFYGDSVK, GRAAGTFDS. Values are log10 of the apparent Kd in nM; lower means stronger binding. A pair that was not seen in that replicate is written "nd"; this usually means weak binding, but a binder can also be missed. In this assay the parent's reference entry averaged 0.65; its copy inside this library read 4.11 (one replicate of three). Background: pairings of library AAYL49 with three empty control strains gave a value in 15% of cases (median 4.06, 5th percentile 2.83). Values in that range, when seen in few replicates, are hard to tell from nonspecific mating. The control count says in how many pairings with the empty strains this scFv gave a signal, with their mean in brackets.

| # | CDR-H1 | CDR-H2 | CDR-H3 | log10 Kd, replicates | control signals |
|---|---|---|---|---|---|
| 1 | GFTLESYGIS | VIYSDGRRTLYGDSVK | GRAAGTWDS | nd / 3.36 / nd | 2/9 (3.17) |
| 2 | GFTLNSYGIS | VIYADGRRTFYGDSVK | GRDAGTFRS | 3.40 / 2.67 / 2.80 | 3/9 (3.80) |
| 3 | GFLLNSYGIS | VIYSDGRRTFYGDSVK | GRAAGTFDS | 0.74 / 0.84 / 0.75 | 1/9 (4.01) |
| 4 | GPTLNSYGIS | VIYSDGRVTFQGDSVK | GRAAGTFDS | nd / 3.29 / nd | 0/9 |
| 5 | GFLLNSYGIS | VNYSDGRRTFYGDSVK | GRAAGTMDS | nd / nd / nd | 0/9 |
| 6 | GFTLNSYCIS | VEYSDGRRTFYGDSVK | GVAAGTFDS | nd / nd / nd | 1/9 (3.93) |
| 7 | GSTLNHYGIS | VIYSDGRRTFYGDSVK | GRAAGTDDS | 4.24 / 4.00 / 5.74 | 6/9 (4.55) |
| 8 | QFTLNSYGIS | VIYSDGRRTRYGDSVK | GRAAGAFDS | 3.83 / nd / nd | 0/9 |
| 9 | GFTLNSYGPS | VIYSDGRRTFYGDSTK | GPAAGTFDS | nd / nd / nd | 3/9 (3.67) |
| 10 | GFTLNSYGID | VIHSDGRRTFYGDSVK | GRAAGTFDS | nd / nd / nd | 0/9 |
| 11 | GFTLNSYGID | VIYSDGRRTFYGDSVW | GRAAMTFDS | nd / nd / nd | 2/9 (3.78) |
| 12 | GFTLDSYGIS | VIYSDWRRTKYGDSVK | GRAAGTFDS | 3.93 / nd / nd | 2/9 (5.11) |
| 13 | GFILNSYGIS | VIYSDGRRTFYGDSVK | WIAAGTFDS | 1.78 / 3.52 / 2.08 | 0/9 |
| 14 | GFTLNSYGIS | VIYMDFRRTFYGDSVK | GRAAGTFDS | nd / nd / nd | 0/9 |
| 15 | GFTLNSYGIS | VIYSDRRRMFYGDSVK | GRAAGTFDS | nd / 3.93 / nd | 2/9 (3.90) |
| 16 | GFTLNSYGIS | VIYVDFRRTFYGDSVK | GRAAGTFQS | nd / nd / nd | 0/9 |
| 17 | GFTLNSCGIS | VIYSDSRRTFYGDSVK | GRKAGTFDS | 5.30 / nd / nd | 3/9 (4.04) |
| 18 | GFTLNSWGIS | VIYSVGRRQFYGDSVK | GRAAGTFDS | nd / nd / 5.17 | 3/9 (4.78) |
| 19 | GFTLNSYGMS | VIYSDGRRTFFGDSVK | GRAAGTFDS | nd / nd / nd | 1/9 (3.03) |
| 20 | GFTLNSYGIS | VIYEDGRRTFYGDSVK | GRDAGHFDS | nd / nd / nd | 0/9 |
| 21 | GFTLNSYGIS | VIYSDGRRTFYGDVVK | GCAAGTFDT | 2.80 / 2.49 / 2.30 | 1/9 (3.63) |
| 22 | GFTLCSYGIS | QIYSDGRRTWYGDSVK | GRAAGTFDS | nd / nd / nd | 2/9 (3.69) |
| 23 | GFTLNSYGIS | VIYSDGRRTFYGDSVK | GRAAGTFYS | 0.52 / 0.82 / 0.80 | 2/9 (4.11) |
| 24 | GFTLNSYGIS | VIYYDGRRTFYGDSVM | GRAAGTTDS | nd / nd / nd | 0/9 |
| 25 | GFTLNSYGIS | VIASDGRRTFYLDKVK | GRAAGTFDS | nd / 2.74 / nd | 1/9 (2.77) |
| 26 | GFTLNSYKIS | VIYSDGRRTDYGDSVK | SRAAGTFDS | 5.75 / 3.70 / nd | 1/9 (3.30) |
| 27 | GFTLNSYGIS | VIYSDLRRTFIGDSHK | GRAAGTFDS | nd / 4.01 / nd | 1/9 (4.04) |
| 28 | GFTLNSYGIS | VIYSDGQRTVYGDSVR | GRAAGTFDS | 1.27 / 1.01 / 1.44 | 0/9 |
| 29 | GFTLNFYGIS | VIYSDGRRTFYGDSVQ | GRAAWTFDS | nd / nd / nd | 2/9 (3.79) |
| 30 | GFTLNSYCIS | VIYSDGRRTFYGDEVK | GRAAGTFDI | nd / nd / nd | 0/9 |
| 31 | GFTLNSYGIS | VIYSDGRRTFYGDNVK | GRAAGTFDL | 0.16 / 0.48 / 0.22 | 1/9 (3.60) |
| 32 | GFTLNSYGIS | VIYSDGRRTFYGDRVK | SRAAGTDDS | 3.90 / 3.83 / nd | 1/9 (3.58) |
| 33 | SFTENSYGIS | VIYSDGRRTIYGDSVK | GRAAGTFDS | nd / nd / nd | 1/9 (2.71) |
| 34 | GFTLWSYGRS | VIYSDGRRTFYGDSVK | GRAAGTADS | nd / nd / 5.56 | 6/9 (4.70) |
| 35 | GFTLNSYGIS | VIYSDGRCTFYGDSVK | GRAADTFDF | 4.58 / nd / nd | 2/9 (3.74) |
| 36 | GFTLNSYVIS | VIYSDGRRRFYGDSVK | KRAAGTFDS | nd / nd / nd | 1/9 (3.38) |
| 37 | GFTLNSGGIS | VIYSFGRRTFYGDSVK | GRAAGTFPS | 5.11 / nd / nd | 0/9 |
| 38 | GFTLNSYGQS | VIYSDGARTVYGDSVK | GRAAGTFDS | nd / nd / nd | 1/9 (4.95) |
| 39 | GFTLNSYGIS | VIYSDGRWTFYGDSVK | GRAMGIFDS | nd / nd / nd | 0/9 |
| 40 | NFTLNSYGIS | VIYSDNRRTFYGDSVK | GRAAGTFDS | 4.99 / 3.84 / nd | 5/9 (4.08) |
| 41 | FFTLNSYGIS | VIHSDGRRTFYGDSVK | GRAASTFDS | nd / nd / nd | 0/9 |
| 42 | GFTLNSYEIS | VIYSDGRRHFYGDTVK | GRAAGTFDS | nd / nd / nd | 0/9 |
| 43 | GFTLNSYGIS | VNYSDGRRTFYCDSVK | GRAAGTFDS | nd / 3.11 / nd | 2/9 (3.16) |
| 44 | GFTLNSYGIS | VIYSDGRRTFYGDSVK | QRAAGTEDS | nd / nd / nd | 0/9 |
| 45 | GFTLGSYGIS | VIYSDGRRTFYGDSVK | GQAAGTFMS | nd / nd / nd | 5/9 (3.97) |
| 46 | GFTLNSYGIS | VIYSDGRRTYYGDSVP | GRAAGTSDS | 4.06 / nd / nd | 1/9 (4.06) |

Extract of 6 entries:

CDR-H1,CDR-H2,CDR-H3,"log10 Kd, replicates",control signals
GFTLNSYGMS,VIYSDGRRTFFGDSVK,GRAAGTFDS,nd / nd / nd,1/9 (3.03)
FFTLNSYGIS,VIHSDGRRTFYGDSVK,GRAASTFDS,nd / nd / nd,0/9
GFTLNSYCIS,VIYSDGRRTFYGDEVK,GRAAGTFDI,nd / nd / nd,0/9
GFTLNSYGIS,VIYSDGRWTFYGDSVK,GRAMGIFDS,nd / nd / nd,0/9
GFTLNSYGIS,VIYVDFRRTFYGDSVK,GRAAGTFQS,nd / nd / nd,0/9
GFTLESYGIS,VIYSDGRRTLYGDSVK,GRAAGTWDS,nd / 3.36 / nd,2/9 (3.17)